Patent publication US20220280469A1, “PHARMACEUTICAL COMPOUND AND PREPARATION METHOD THEREFOR AND USE THEREOF” (priority 2019, published 2022)
“Also recorded” adds a separate entry of the source.

Assays:
[1] = Toxicity in PANC-1 subcutaneous tumor mice (liver HE, blood cell analysis, blood biochemistry); assay type: in vivo, mouse; conditions: for liver damage (HE staining of liver tissue): after end of administration cycle
[2] = system: PANC-1 subcutaneous transplantation tumor; test: Anti-tumor effect in PANC-1 subcutaneous transplantation tumor model; conditions: for inhibition of PANC-1 subcutaneous transplantation tumor (tumor volume, tumor weight): 4 mg/kg cisplatin (effective dose), tail vein, once a week, 4 times
[3] = Pharmacokinetics and tumor targeting of Pt in tumor tissue of pancreatic cancer orthotopic transplantation model mice; assay type: in vivo, mouse; conditions: 8 mg/kg
Experimental: Mouse pancreatic cancer cells transfected with luciferase reporter genes were used to prepare mouse pancreatic cancer orthotopic transplantation models. The tumor volume of the mice were determined by injecting […] into tail veins, and the mice with similar tumor volume were selected for evaluation of systemic PK and tumor-targeting property. […] Pharmacokinetic parameters were calculated using PK Solver 2.0.

[4] = Maximum tolerated dose of cisplatin-albumin compound and cisplatin; assay type: in vivo, Balb/C mouse
PANC-1 cells [5] = test: In vitro cytotoxicity (CCK8, 48 h); assay type: cell-based, human; conditions: CCK8, n=5
PANC-1 cells [6] = test: Cell migration (scratch) experiment; assay type: cell-based, human; conditions: compared among cisplatin and compounds with different DPRs
Experimental: In the cell migration experiment, PANC-1 cells were used, cell density was set to be 50000 cells/well (a 6-well plate), and a DMEM high-glucose medium contained 10% fetal bovine serum and penicillin and streptomycin at a certain concentration. The cells were incubated in an incubator at 37° C./5% CO2, 3 duplicate wells were set for each group, and the culture system was 400 μL/well. The medium was replaced with low concentration serum medium (containing 1% FBS) for cell culturing when the confluence of cells reached 90% or more. A 1 mL pipette tip was vertically aimed to the central part of the lower end of the 6-well plate, and was then slightly pushed upwards to form a scratch. […] A picture was taken at 0 h. The mixture was incubated in an incubator at 37° C./5% CO2, and a proper time was decided according to healing degree to scan the plate with a cell imaging device. Migration area and migration rate were analyzed and calculated. Migration area=cell area at 24 h−cell area at 0 h; migration rate=migration area/cell area at 0 h; migration index=migration rate of compound treatment group/migration rate of control group.

[7] = system: MIA PaCa-2 pancreas orthotopic transplantation tumor; test: Kaplan-Meier survival in MIA PaCa-2 pancreas orthotopic transplantation model; conditions: once every 7 days, three times
MIA PaCa-2 cells = test: In vitro cytotoxicity (CCK8, 48 h); assay type: cell-based, human; conditions: CCK8, n=5
[8] = Particle size by dynamic light scattering; assay type: physicochemical
[9] = system: PANC-1 subcutaneous transplantation tumor; conditions: mouse, in vivo
[10] = Release of cisplatin from the compound in phosphate buffer (HPLC); assay type: physicochemical
Experimental: The purification conditions were as follows: purification device: ÄKTA™ Purifier 100; desalting column: Hitrap Desalting 5 mL columns connected in series; eluent: deionized water. […] The pre-frozen product of the purified cisplatin-albumin compound was lyophilized using a lyophilizer, thus obtaining lyophilized powder of the purified cisplatin-albumin compound. The purified cisplatin-albumin compound was characterized for the following: particle size, electrophoretic analysis and mass spectrometry.

[11] = 11 days after end of administration, 4 mg/kg

cisplatin-albumin compound 1:1
average platelet volume [1, 11]: irreversible reduction of the platelet volume
number of platelets compared with the control group [1, 11]: reduced
liver damage (HE staining of liver tissue) ([1]; 4 mg/kg): significant liver damage
inhibition of PANC-1 subcutaneous transplantation tumor (tumor volume, tumor weight) [2]: significant inhibition effect

cisplatin-albumin compound 6:1
ID% (drug amount at a tumor site x 100%/injected drug amount) ([3]; tumor site): more than 25%
number of platelets compared with the control group [1, 11]: not significantly reduced
liver damage (HE staining of liver tissue) ([1]; 4 mg/kg): no obvious liver damage
survival of mice after administration ([4]; 40 mg/kg and 60 mg/kg (dose of cisplatin in compound)): all survived
body weight after administration in MTD experiment ([4]; compound 40 and 60 mg/kg, cisplatin 15-40 mg/kg): gained weight
MTD ([4]; tail vein, for the compound: dose of cisplatin in compound): > 60 mg/kg
cytotoxicity to PANC-1 (PANC-1 cells [5]): lower than that of cisplatin
migration rate of PANC-1 cells (PANC-1 cells [6]): lowest
inhibition of PANC-1 subcutaneous transplantation tumor (tumor volume, tumor weight) [2]: significant inhibition effect; also recorded: best tumor-inhibition effect
tumor progression (HE staining of tumor tissue) ([2]; after end of administration cycle, 4 mg/kg): inhibited
cell proliferation of tumor tissues (Ki67) ([2]; compared with cisplatin and compounds with other DPRs): remarkably lower
apoptosis of tumor cells (TUNEL) ([2]; compared with other groups): higher than that in other groups
survival advantage (Kaplan-Meier), low-dose group ([7]; 1 mg/kg effective cisplatin dose): significantly higher than that of other experimental groups
body weight of the mice in the whole treatment process ([7]; orthotopic model): not significantly reduced
survival advantage (Kaplan-Meier) ([7]; tail vein, P<0.05 vs cisplatin 5 mg/kg): greater than that of the cisplatin group

cisplatin-albumin compound 12:1
number of platelets compared with the control group [1, 11]: reduced
liver damage (HE staining of liver tissue) ([1]; 4 mg/kg): significant liver damage
inhibition of PANC-1 subcutaneous transplantation tumor (tumor volume, tumor weight) [2]: no significant inhibition effect

cisplatin-albumin compound
t1/2ka at tumor site ([3]; tumor site): 8.65 h
mean retention time MRT of Pt in tumor tissues, improvement compared with cisplatin group ([3]; tumor tissue): ≥ 10 times
cytotoxicity to MIA PaCa-2 (MIA PaCa-2 cells): lower than that of cisplatin
renal function (blood biochemical analysis) ([1]; 11 days after administration, compared with control group): no significant change in the renal function
tendency towards myelosuppression ([1]; from lymphocyte and neutrophil analysis, 11 days after administration): no significant tendency towards myelosuppression
average particle size (number average particle size) ([8]; dynamic light scattering): 3-10 nm
average particle size of the reaction system ([8]; feed ratio of 24 (cisplatin to albumin)): 326 nm
body weight of the mice during the administration process [9]: not significant
release rate of cisplatin ([10]; phosphate buffer with a pH of 5.0): significantly improved
release amount of cisplatin ([10]; phosphate buffer with a pH of 7.4, HPLC): smaller than 10%
